# The list is not random: actives were taken first. Their share in the collection is about 3.7%.
# Nrf2 inh: Nrf2 pathway inhibition; A549 ARE-Fluc reporter, luciferase luminescence, 18-24 h; Potency, µM (highest dose often 46 µM), without a hit: top-dose activity change, negative = inhibition, hits mostly inhibitors; 360,000 tested, 2.1% active; AID 504444; further: potency means the concentration at half of the fitted maximal effect; on the % scale 0 is the no-effect control and ±100 the full control effect; nearly all actives have a fitted effect of over 60% in size
#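 Concentration-response testing used A549 ARE_Fluc cells at 5000 cells/well. Following an 18-24 h compound incubation, viability was read by fluorescence (Ex 405/Em 525) and luciferase output by luminescence.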
# A549 tox: A549 cytotoxicity, counter-screen for Nrf2 inhibitors; A549 ARE-Fluc cells, CellTiter-Fluor viability, 18-24 h; Potency, µM (series often up to 46 µM), for the others: top-dose activity change, negative = cytotoxicity, hits mostly inhibitors; 390,000 tested, 0.16% active; AID 504648; further: potency means the concentration at half of the fitted maximal effect; on the % scale 0 is the no-effect control and ±100 the full control effect
#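 A549 ARE-Fluc cells in 5% FBS OPTI-MEM, 5000 cells/well, rested 2 h then exposed to compounds in concentration-response for 18-24 h at 37 °C. Viability by CellTiter-Fluor fluorescence (Ex 405/Em 525) after 30 min; luciferase luminescence (BugLite, 15 min, RT) read afterwards.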
# miR-21 reporter: raises the signal of a miR-21 reporter | HeLa miR-21 FLuc reporter, luciferase, 48 h | Potency, µM (doses to about 38.3 µM), for the others: at the highest dose reporter change, positive = more light | 340,000 tested, under 10 active | AID 2288; active = well fitted rising curve with a large enough effect; inconclusive = small, poorly fitted or top-dose-only effect; inactive = no such curve, though single readings can be large or run the other way;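 also: % of control where 0% means no effect; miR-21 action dims this reporter so a rising signal means less miR-21 action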
#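 Compounds were titrated across several concentrations (up to approximately 40 uM) and incubated 48 hours with HeLa miR-21-FLuc reporter cells (miR-21 target sequence downstream of FLuc, endogenous miR-21). Readout was firefly luciferase luminescence after lytic detection reagent.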
# IL-2 act: activators of IL-2; activation, % (series mostly up to about 46 µM); AID 652025; IL-2 activation reporter assay, cell-based qHTS; stimulated with anti-CD3/CD4/CD28 beads; in transgenic mouse T cells; 360,000 tested, 0.065% active; in the data active means activation above about 50%; inconclusive means mostly about 30% to 49%; further: 0% is about no effect
#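 Unstimulated transgenic mouse T cells, 750 per well, received compound and, after 60 minutes, anti-CD3/anti-CD4 bead plus anti-CD28 stimulation. EGFP and DsRed were quantified after 18 hours.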
# ClpP mod: qHTS Assay for Activators of ClpP | purified B. subtilis ClpP, FRET peptide cleavage, 20 min | Potency, µM (series often up to 57.5 µM), for the others: at the top dose activity change, negative = active | 340,000 tested, 1.9% active | AID 651965, 2013; active means well fitted falling curve with a large enough effect; inconclusive means small, poorly fitted or top-dose-only effect; inactive means no such curve, though single readings can be large or run the other way; further: potency means the concentration at half of the fitted maximal effect; the source files actives as falling curves though it sought activators and does not explain the sign; nearly all actives have a fitted effect of over 65% in size
#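 Buffer: 100 mM Tris/HCl pH8, 100 mM KCl, 0.05% low protease BSA, 2.5% glycerol, 0.01% Tween-20. ClpP 10 microg/mL final; 20 min RT; delta FRET normalized to ADEP and DMSO controls.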
# Nrf2 ARE act: Nrf2 pathway activation; AREc32 ARE-luciferase reporter (MCF7-derived line), luminescence, 24 h; AID 624171; 410,000 tested, 0.31% active; Potency, µM (series often up to 46.1 µM), for inactives: top-dose activation, hits mostly activators; further: potency means the concentration at half of the fitted maximal effect; % of control where 0% means no effect; nearly all actives have a fitted effect of over 65% in size
#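 Nrf2 activation is followed as ARE-luciferase induction in the AREc32 line after one day of compound treatment; luminescence is read with Steady-Glo.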
# An asterisk follows results filed as active; ? = inconclusive; . = no result given; ! = repeats disagree; [ ] = another dose, or the depositor's remark. Unless noted, the call rests on the fitted dose curve; in most records, active means well fitted curve in the direction sought with a large enough effect; inconclusive means small, poorly fitted or top-dose-only effect, or another doubt; inactive means no such curve, though single readings can be large; an effect the other way counts as inactive or inconclusive.
No. | smiles | Nrf2 inh | A549 tox | miR-21 reporter | IL-2 act | ClpP mod | Nrf2 ARE act
1 | Cc1ccc(/C=C2\CCCC3=C2NC(=S)NC3c2ccc(C)cc2)cc1 (centres undefined) | 26% | 6% | -8% | 1 | 16µM* | 6%
2 | Cc1cc(=O)oc2cc(OC(C)C(=O)O)c(Cl)cc12 (centres undefined) | 2% | -7% | -4% | 6 | 28µM* | 0%
3 | CCOc1ccc2oc(=O)cc(C)c2c1 | -3% | -9% | -16% | -1 | 32µM* | 0%
4 | Cc1cc(=O)oc2ccc(OC(C)C(=O)O)cc12 (centres undefined) | -16% | 0% | ? | 3 | 32µM* | 0%
5 | Cc1cc(=O)oc2cc(OC(C)C(=O)N3CCOCC3)c(Cl)cc12 (centres undefined) | . | . | . | -2 | 4% | 0%
6 | CCC(=O)Oc1ccc2oc(=O)cc(C)c2c1 | 10% | -3% | -8% | 0 | -6% | 0%
7 | Cc1cc(=O)oc2cc(OCC(=O)Nc3c(C)n(C)n(-c4ccccc4)c3=O)c(Cl)cc12 | -16% | -4% | . | 0 | 32µM* | 0%
8 | CCc1ccc(-c2nc(CS(=O)CC(=O)NCCc3ccc(C)cc3)c(C)o2)cc1 (centres undefined) | . | -3% | -4% | . | -5% | 4%
9 | Cc1ccsc1CNc1ncnc2ccc(-c3ccc4c(c3)OCO4)cc12 | ? | -4% | . | . | . | .
10 | COc1ccc(N2CCN(S(=O)(=O)c3ccc(CC(C)C)cc3)CC2)cc1 | -15% | -1% | 0% | . | 2% | 0%
11 | CC1CCN(C(=O)Nc2ccc3nc(-c4ccco4)c(-c4ccco4)nc3c2)CC1 | ? | -12% | . | . | -4% | .
12 | c1ccc(-c2cc3c(N4CCOCC4)ncnc3s2)cc1 | -16% | 2% | -25% | 0 | 28µM* | 1%
13 | Cc1nc(N2CCOCC2)c2cc(-c3ccccc3)sc2n1 | -2% | ? | -40% | 0 | 32µM* | 0%
14 | Cc1nc(N2CCN(Cc3ccc4c(c3)OCO4)CC2)c2cc(-c3ccccc3)sc2n1 | ? | 0% | -5% | -3 | . | 7%
15 | Cn1c(=O)c(=O)n(C)c2cc(N3CCCC3)c(NC(=O)c3ccc(C(C)(C)C)cc3)cc21 | -13% | 1% | -1% | . | 35µM* | 3%
16 | COc1ccc(C(=O)Nc2cc3c(cc2N2CCCCC2)n(C)c(=O)n3C)cc1OC | ? | -10% | -3% | -4 | -4% | 1%
17 | CCn1c(=O)n(CC)c2cc(N3CCCC3)c(NC(=O)c3cc(Cl)ccc3OC)cc21 | 21µM* | ? | 2% | -3 | -3% | 0%
18 | CCn1c(=O)n(CC)c2cc(N3CCCC3)c(NC(=O)c3ccccc3OC)cc21 | ? | ? | 8% | -2 | -1% | 6%
19 | COc1ccc(Cl)cc1C(=O)Nc1ccc(-c2nnc3n2CCCCC3)cc1 | 23µM* | -14% | -2% | . | ? | 0%
20 | CCOc1ccc(C(=O)Nc2ccc(-c3nnc4n3CCCCC4)cc2)cc1OCC | -19% | 6% | -3% | . | -2% | 0%
21 | COc1ccc(C(=O)Nc2cc3c(cc2N2CCCC2)n(C)c(=O)c(=O)n3C)cc1OC | -1% | -2% | -8% | . | 32µM* | 4%
22 | COc1ccc(CCNC(=O)c2ccc(Cn3c(=O)c4ccccc4n(Cc4ccc(F)cc4Cl)c3=O)cc2)cc1OC | 17% | 1% | -1% | . | 1% | -2%
23 | Cc1ccc(C)c(N2CCN(CCCNC(=O)c3ccc4nc(N5CCCCC5)sc4c3)CC2)c1 | ? | ? | ? | . | -12% | 4%
24 | CCOc1ccc(C(=O)Nc2cc3c(cc2N2CCCC2)n(C)c(=O)c(=O)n3C)cc1OCC | -2% | 1% | 0% | . | 28µM* | 0%

# Fetched by compound from the entries so far (6):
No. | smiles | Nrf2 inh | A549 tox | miR-21 reporter | IL-2 act | ClpP mod | Nrf2 ARE act
17 | CCn1c(=O)n(CC)c2cc(N3CCCC3)c(NC(=O)c3cc(Cl)ccc3OC)cc21 | 21µM* | ? | 2% | -3 | -3% | 0%
19 | COc1ccc(Cl)cc1C(=O)Nc1ccc(-c2nnc3n2CCCCC3)cc1 | 23µM* | -14% | -2% | . | ? | 0%
20 | CCOc1ccc(C(=O)Nc2ccc(-c3nnc4n3CCCCC4)cc2)cc1OCC | -19% | 6% | -3% | . | -2% | 0%
21 | COc1ccc(C(=O)Nc2cc3c(cc2N2CCCC2)n(C)c(=O)c(=O)n3C)cc1OC | -1% | -2% | -8% | . | 32µM* | 4%
22 | COc1ccc(CCNC(=O)c2ccc(Cn3c(=O)c4ccccc4n(Cc4ccc(F)cc4Cl)c3=O)cc2)cc1OC | 17% | 1% | -1% | . | 1% | -2%
23 | Cc1ccc(C)c(N2CCN(CCCNC(=O)c3ccc4nc(N5CCCCC5)sc4c3)CC2)c1 | ? | ? | ? | . | -12% | 4%

# (continued)
No. | smiles | Nrf2 inh | A549 tox | miR-21 reporter | IL-2 act | ClpP mod | Nrf2 ARE act
25 | O=C(NCc1cccc(F)c1)c1ccccc1NC(=O)c1nsc2ccccc12 | . | -16% | 6% | . | 28µM* | 6%
26 | Cc1ccc(NC(=O)CN2C(=O)COc3ccc(S(=O)(=O)N4CCOCC4)cc32)c(Cl)c1 | 12% | 0% | -4% | . | 1% | 0%
27 | Cc1ccc(Cn2c(=O)c3cccnc3n(CC(=O)Nc3cccc(C(F)(F)F)c3)c2=O)cc1 | 5.8µM* | 5% | 26% | 0 | 32µM*! | 5%
28 | COc1ccc(C2=Nn3c(nnc3-c3ccccc3O)SC2)cc1OC | 0% | 1% | . | . | . | .
29 | CC(=O)N1N=C(c2ccc3ccccc3c2)OC1(C)C | -3% | 1% | -1% | -5 | 14% | 1%
30 | CC(=O)N1N=C(c2ccc(C(C)(C)C)cc2)OC1(C)C | -9% | -3% | 0% | 0 | 32µM* | -1%
31 | CCN(CC)c1ccc(NC(=O)C2CCN(S(=O)(=O)c3c(C)noc3/C=C/c3ccccc3F)CC2)c(C)c1 | . | 2% | 4% | . | -1% | 7%
32 | CCOC(=O)c1cc2c(=O)n3ccccc3nc2n(Cc2ccco2)c1=NC(=O)c1cccc(C)c1 | -2%[9.27 µM] | -6% | 7% | . | 4% | 4%
33 | CCOC(=O)c1cc2c(=O)n3cccc(C)c3nc2n(Cc2ccco2)c1=NC(=O)c1cccnc1 | -3% | ? | -16% | 2 | 14µM* | 3%
34 | CCOC(=O)c1cc2c(=O)n3ccccc3nc2n(Cc2ccccc2)c1=N | ? | 1% | -1% | 0 | 16µM* | 0%
35 | CCOC(=O)c1cc2c(=O)n3ccccc3nc2n(Cc2ccccc2Cl)c1=N | . | . | -2% | . | . | .
36 | CCOC(=O)c1cc2c(=O)n3ccccc3nc2n(CC(C)C)c1=NC(=O)c1ccco1 | -8% | -18% | 9% | -1 | 7.1µM* | 3%
37 | CCOC(=O)c1cc2c(=O)n3ccccc3nc2n(Cc2ccco2)c1=NC(=O)c1cccnc1 | 29% | ? | -2% | -3 | 3.2µM* | 8%
38 | CCOC(=O)c1cc2c(=O)n3ccccc3nc2n(Cc2ccco2)c1=NC(=O)c1ccc(C)c(C)c1 | 3%[9.27 µM] | 9% | -2% | . | 4% | 4%
39 | COCc1cc(C)nc2sc3c(c12)NC(c1ccc(O)cc1)N(c1ccc(C)cc1)C3=O (centres undefined) | ? | ? | 0% | . | -15% | -2%
40 | Cc1coc2cc3oc(=O)c(CC(=O)NCc4cccc(Cl)c4)c(C)c3cc12 | -19% | 2% | 24% | . | 4% | 2%
41 | CCOC(=O)c1nc2cc3n(c(CC(C)C)c-2c1C)CC(C)=C3C | -2% | 2% | -5% | 0 | 28µM* | 0%
42 | CCOc1cccc2sc(N(Cc3cccnc3)C(=O)c3ccc(C#N)cc3)nc12 | . | 0% | -3% | . | 1% | 0%

# Screening data (PubChem BioAssay)
